Measurements taken from patent US8916565B2, “Pyrrolopyrazine-spirocyclic piperidine amides as modulators of ion channels” (priority 2011, dated 2014).
pIC50: −log10 of the molar value.

The chains behind the UniProt entries cited, without tags or fusion partners.
UniProt Q15858, whole entry: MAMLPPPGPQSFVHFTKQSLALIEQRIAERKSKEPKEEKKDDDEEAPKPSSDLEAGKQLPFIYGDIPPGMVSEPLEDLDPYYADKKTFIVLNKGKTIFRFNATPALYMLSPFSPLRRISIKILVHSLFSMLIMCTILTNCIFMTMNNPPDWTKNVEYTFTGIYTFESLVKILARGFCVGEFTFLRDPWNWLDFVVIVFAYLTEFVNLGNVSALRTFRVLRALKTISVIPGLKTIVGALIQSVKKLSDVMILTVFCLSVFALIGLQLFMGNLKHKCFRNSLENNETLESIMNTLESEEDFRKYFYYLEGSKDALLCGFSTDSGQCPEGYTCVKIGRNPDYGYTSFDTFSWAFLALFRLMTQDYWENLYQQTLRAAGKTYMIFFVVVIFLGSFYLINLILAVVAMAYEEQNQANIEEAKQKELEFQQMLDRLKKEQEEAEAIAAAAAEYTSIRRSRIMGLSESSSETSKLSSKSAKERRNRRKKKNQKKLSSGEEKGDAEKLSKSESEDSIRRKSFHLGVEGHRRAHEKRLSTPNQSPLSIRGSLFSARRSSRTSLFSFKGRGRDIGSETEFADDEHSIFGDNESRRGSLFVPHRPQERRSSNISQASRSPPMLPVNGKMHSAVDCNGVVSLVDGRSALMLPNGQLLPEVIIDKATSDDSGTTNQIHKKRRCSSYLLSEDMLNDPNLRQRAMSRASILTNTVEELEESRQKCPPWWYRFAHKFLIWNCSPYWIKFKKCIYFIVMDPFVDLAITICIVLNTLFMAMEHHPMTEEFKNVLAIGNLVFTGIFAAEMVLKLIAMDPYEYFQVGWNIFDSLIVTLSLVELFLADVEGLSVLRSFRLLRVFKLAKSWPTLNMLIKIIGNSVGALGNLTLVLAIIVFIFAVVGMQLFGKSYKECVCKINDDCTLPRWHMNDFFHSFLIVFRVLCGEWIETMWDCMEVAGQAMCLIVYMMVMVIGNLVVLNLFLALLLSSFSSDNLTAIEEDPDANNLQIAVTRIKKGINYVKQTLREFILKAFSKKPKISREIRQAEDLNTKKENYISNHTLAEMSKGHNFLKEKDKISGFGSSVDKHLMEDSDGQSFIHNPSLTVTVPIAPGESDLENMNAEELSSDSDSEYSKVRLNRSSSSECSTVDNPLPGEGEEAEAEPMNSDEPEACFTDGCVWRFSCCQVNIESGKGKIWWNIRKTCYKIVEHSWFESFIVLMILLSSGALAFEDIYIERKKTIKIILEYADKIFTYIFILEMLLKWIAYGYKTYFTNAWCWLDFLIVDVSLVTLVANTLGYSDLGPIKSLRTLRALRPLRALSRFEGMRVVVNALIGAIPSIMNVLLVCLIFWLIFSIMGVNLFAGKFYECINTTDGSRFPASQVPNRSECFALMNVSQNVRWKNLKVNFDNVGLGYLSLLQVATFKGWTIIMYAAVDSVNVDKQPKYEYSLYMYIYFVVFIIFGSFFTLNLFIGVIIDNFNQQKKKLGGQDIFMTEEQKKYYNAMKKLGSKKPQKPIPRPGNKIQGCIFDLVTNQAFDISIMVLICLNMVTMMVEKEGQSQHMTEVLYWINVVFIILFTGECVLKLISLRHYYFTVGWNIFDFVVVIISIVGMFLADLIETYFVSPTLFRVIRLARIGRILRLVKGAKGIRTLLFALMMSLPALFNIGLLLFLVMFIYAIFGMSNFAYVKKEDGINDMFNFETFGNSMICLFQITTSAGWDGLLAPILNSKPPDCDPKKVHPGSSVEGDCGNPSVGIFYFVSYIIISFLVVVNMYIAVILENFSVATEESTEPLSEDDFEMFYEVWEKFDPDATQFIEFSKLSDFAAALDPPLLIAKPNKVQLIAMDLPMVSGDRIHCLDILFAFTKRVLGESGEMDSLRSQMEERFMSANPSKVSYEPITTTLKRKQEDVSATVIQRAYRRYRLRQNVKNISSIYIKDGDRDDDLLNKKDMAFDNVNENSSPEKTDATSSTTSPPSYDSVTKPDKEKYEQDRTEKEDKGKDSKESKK

Molecular target: human NaV subtype, like NaV 1.7 (Homo sapiens, UniProt Q15858)
Assay: E-VIPR optical membrane potential assay with electrical stimulation
Assay type: cell-based
Conditions: read-out: Binned Activity Data (IC50); active against one or more sodium channels; Table 3 does not name the assay or NaV subtype

Compound | pIC50
CC(C)CS(=O)(=O)c1ccc(C(=O)N2CCC3(CC2)c2ccc(C(=O)C(C)(C)C)n2CCN3C)cc1 | > 5.70
CCC(=O)c1ccc2n1CCN(C)C21CCN(C(=O)c2ccc(N3CCCCC3)cc2)CC1 | > 5.70
